Here are results for two compounds from patent US20110065208A1, “DETERMINATION AND ESTIMATION OF ABSORPTION AND DISTRIBUTION OF SUBSTANCES IN BRAIN TISSUE” (SOVICELL GMBH, priority 2008, published 2011).

Sequences of proteins named here, by UniProt entry; tags and fusion partners are left off. Residues count along the entry.
UniProt P02768, 25-609: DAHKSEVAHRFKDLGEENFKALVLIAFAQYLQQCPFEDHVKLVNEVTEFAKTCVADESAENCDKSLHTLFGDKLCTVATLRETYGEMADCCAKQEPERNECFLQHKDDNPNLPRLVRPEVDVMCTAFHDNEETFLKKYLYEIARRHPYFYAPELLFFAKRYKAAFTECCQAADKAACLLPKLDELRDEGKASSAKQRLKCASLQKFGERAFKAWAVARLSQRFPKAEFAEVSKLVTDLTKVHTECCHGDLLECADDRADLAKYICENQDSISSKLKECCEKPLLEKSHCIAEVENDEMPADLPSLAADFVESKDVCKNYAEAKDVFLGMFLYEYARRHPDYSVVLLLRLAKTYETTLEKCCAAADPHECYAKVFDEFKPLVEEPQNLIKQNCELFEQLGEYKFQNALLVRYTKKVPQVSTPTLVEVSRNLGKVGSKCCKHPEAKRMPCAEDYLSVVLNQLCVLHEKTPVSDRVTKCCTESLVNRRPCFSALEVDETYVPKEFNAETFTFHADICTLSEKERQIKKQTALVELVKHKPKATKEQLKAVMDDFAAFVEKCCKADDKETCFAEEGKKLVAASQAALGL

For data set [1], the target named is HSA (human serum albumin) (Homo sapiens, UniProt P02768). Briefly: HSA binding constants (TRANSIL HSA Binding Kit).
The nature of data set [2]: Brain lipid-water partition coefficient log MAbrain (membrane affinity) on immobilized brain lipid membranes. It counts as physicochemical. The note with it: Table 6; parameter set for free fraction in brain.

As usually defined, the Kd is the constant that tells how readily two partners part at equilibrium. A low value points to higher affinity. In data set [1], `CN(C)CCCN1c2ccccc2Sc2ccc(Cl)cc21` [Chlorpromazine, chlorpromazine] gave a Kd of 21 µM.
Take `O=C1NC(=O)C(c2ccccc2)(c2ccccc2)N1` [Phenytoin]: in data set [2], the logMA_brain is reported as 2.02.
